biological target: placental alkaline phosphatase (ALPP), human; assay: human placental alkaline phosphatase inhibition – biochemical, luminescence, confirmation (AID 1512); settings: purified PLAP enzyme, luminescent substrate read-out

Q: With `O=C(Cn1cnc(Br)c1)c1ccc(O)c(O)c1` as the compound, how does the IC50 read?
A: 15.8 µM

Q: With `O=C(Cn1cnnc1)c1ccc(O)c(O)c1` as the compound, how does the IC50 read?
A: 13.4 µM

Q: For `Cc1nc2ccccc2n1CC(=O)c1ccc(O)c(O)c1`, which IC50 is on record?
A: 2.51 µM
